Assay results: patent US9789057B2, “Pharmaceutical delivery system” (Perrigo Pharma International Designated Activity Company, priority 2003, dated 2017)

Tested on: bacterial vaginitis, e.g., Gardnerella morphotype
Conditions: active agent in the drug delivery system

CCC[C@@H]1C[C@@H](C(=O)N[C@@H]([C@H]2O[C@H](SC)[C@H](O)[C@@H](O)[C@H]2O)[C@H](C)Cl)N(C)C1 [clindamycin]
reduction of conventional treatment period or quantity of agent used: at least 25%
